Earlier results as cited in patent US10550155B2, “Anticancer peptides” (priority 2018, dated 2020).

Experiments:
Settings in all cases: cited from earlier work
HepG2 cells = system: HepG2 cells
THP-1 monocytes = system: THP-1 monocytes
human erythrocytes = system: human erythrocytes
[1] = system: THP-1-derived macrophages
fibroblasts = system: fibroblasts

Substance: [K^3] temporin-SHa
- Cytotoxicity on HepG2 cells (literature) (HepG2 cells): no cytotoxicity
- Cytotoxicity on THP-1 monocytes (literature) (THP-1 monocytes): low cytotoxicity
- Cytotoxicity on human erythrocytes (literature) (human erythrocytes): low cytotoxicity
- Cytotoxicity on THP-1-derived macrophages (literature) [1]: low cytotoxicity
- Cytotoxicity on fibroblasts (literature) (fibroblasts): no cytotoxicity
